# From BindingDB's records for US9359399
# Protein sequences, listed by entry. Tags and fused reporters are not part of them. Lines headed by an entry give the natural chain unless they say otherwise; changes in a name come on top.
# UniProt P41145: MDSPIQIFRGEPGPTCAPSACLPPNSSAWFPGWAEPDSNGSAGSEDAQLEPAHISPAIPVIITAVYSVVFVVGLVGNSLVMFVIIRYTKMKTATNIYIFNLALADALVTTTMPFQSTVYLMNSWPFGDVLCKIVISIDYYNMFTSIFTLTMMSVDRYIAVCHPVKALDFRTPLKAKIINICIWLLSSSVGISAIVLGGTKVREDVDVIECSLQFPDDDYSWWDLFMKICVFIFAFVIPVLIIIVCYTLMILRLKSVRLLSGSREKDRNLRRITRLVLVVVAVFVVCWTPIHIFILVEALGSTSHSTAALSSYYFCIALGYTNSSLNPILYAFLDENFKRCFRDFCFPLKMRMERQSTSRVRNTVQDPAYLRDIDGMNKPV
# UniProt P33534: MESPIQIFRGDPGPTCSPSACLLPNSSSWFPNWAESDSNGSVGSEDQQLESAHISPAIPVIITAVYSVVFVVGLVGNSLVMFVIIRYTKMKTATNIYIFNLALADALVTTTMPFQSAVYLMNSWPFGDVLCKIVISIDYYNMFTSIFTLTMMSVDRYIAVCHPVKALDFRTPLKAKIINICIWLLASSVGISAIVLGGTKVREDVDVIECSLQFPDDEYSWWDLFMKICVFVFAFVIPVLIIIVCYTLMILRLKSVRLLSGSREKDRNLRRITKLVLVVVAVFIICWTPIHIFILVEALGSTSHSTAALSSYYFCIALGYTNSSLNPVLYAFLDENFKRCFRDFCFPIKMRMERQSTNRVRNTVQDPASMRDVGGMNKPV
# What was measured:
# [1] = target: Kappa-type opioid receptor (Homo sapiens, UniProt P41145); experiment: Time Resolved Fluorescence Resonance Energy Transfer (TR-FRET)-Based cAMP Immunoassay
# [2] = target: Kappa-type opioid receptor (Mus musculus, UniProt P33534); experiment: as above
smiles,measurement,setting,value
CC(C)C[C@@H](NC(=O)[C@@H](Cc1ccccc1)NC(=O)[C@H](N)Cc1ccccc1)C(=O)N[C@H](CCCCN)C(=O)N1CCC2(CC1)C(=O)NCN2c1ccccc1,EC50,[1],0.0165 nM
same,EC50,[2],0.0767 nM
